Earlier results as cited in paper PMC6832932, “Design and Selection of Novel C1s Inhibitors by In Silico and In Vitro Approaches” (Molecules, 2019).

Molecular target: Factor Xa
Design: method as in PMID 18624979
Conditions: ref [50]; cited from earlier work

In the case of `CN1CCc2nc(C(=O)N[C@@H]3C[C@@H](C(=O)N(C)C)CC[C@@H]3NC(=O)C(=O)Nc3ccc(Cl)cn3)sc2C1` [Edoxaban], the Ki is given as 0.561 nM.
